This passage reports IC50 results from ChEMBL document CHEMBL1139672, “1,2,3,4-Tetrahydroisoquinolinyl sulfamic acids as phosphatase PTP1B inhibitors” (Bioorg Med Chem Lett, 2006).

The structures appear in SMILES notation.

This experiment has as its target T1, Tyrosine-protein phosphatase non-receptor type 1 (Homo sapiens, UniProt P18031).
T1 sequence (P18031 whole entry): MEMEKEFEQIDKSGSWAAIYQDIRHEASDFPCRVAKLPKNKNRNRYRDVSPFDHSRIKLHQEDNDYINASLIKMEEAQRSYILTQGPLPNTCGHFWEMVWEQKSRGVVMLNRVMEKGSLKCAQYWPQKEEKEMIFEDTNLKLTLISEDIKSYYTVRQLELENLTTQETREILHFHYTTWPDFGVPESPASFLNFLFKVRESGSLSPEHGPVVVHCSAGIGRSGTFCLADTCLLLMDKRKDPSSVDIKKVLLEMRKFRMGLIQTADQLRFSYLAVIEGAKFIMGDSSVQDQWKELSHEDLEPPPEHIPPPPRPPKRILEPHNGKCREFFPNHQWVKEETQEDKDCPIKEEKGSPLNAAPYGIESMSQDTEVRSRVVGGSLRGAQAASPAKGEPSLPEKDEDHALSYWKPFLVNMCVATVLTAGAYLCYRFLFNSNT
The experiment can be described thus: Inhibition of PTP1B.

A word on the IC50: it is the midpoint of a concentration-inhibition curve. Low values mean greater potency, high ones weaker potency. On to `CNC(=O)[C@@H]1Cc2ccc(NS(=O)(=O)O)cc2CN1C(=O)CCc1cccc(NS(=O)(=O)O)c1`, for which the IC50 came out at 4.8 µM.
